Values quoted from earlier work, collected in PMC5105194.

Biological target: VPS29 (Homo sapiens) (UniProt Q9UBQ0)
Test: ITC
Details: cited from earlier work

VPS35 (from UniProt Q96QK1)
Kd: 0.2 µM
